Experimental data: ChEMBL document CHEMBL3580653, “Development of novel CXC chemokine receptor 7 (CXCR7) ligands: selectivity switch from CXCR4 antagonists with a cyclic pentapeptide scaffold” (J Med Chem, 2015)

Amino acid sequences for entries named in this document (tags omitted).
UniProt P61073, whole entry: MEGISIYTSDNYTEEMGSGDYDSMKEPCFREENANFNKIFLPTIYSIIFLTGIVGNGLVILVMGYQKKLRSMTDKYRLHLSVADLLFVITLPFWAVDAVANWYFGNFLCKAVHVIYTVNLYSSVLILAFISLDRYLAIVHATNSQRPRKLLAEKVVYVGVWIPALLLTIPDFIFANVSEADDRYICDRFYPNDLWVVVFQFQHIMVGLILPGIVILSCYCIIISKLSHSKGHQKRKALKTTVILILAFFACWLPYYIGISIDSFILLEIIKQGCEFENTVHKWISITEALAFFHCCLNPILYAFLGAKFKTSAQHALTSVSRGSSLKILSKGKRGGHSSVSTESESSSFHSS

Biological target: C-X-C chemokine receptor type 4 (Homo sapiens, UniProt P61073)
Experiment: Inhibition of [125I]SDF-1alpha binding to CXCR4 (unknown origin) expressed in HEK293 cell membranes incubated for 1 hr by radioligand displacement assay
In short: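 Scintillation proximity binding: receptor membranes (10−20 µg/well) on WGA beads (0.25 mg/well) incubated with peptide and [125I]-SDF-1α (0.20 nM for CXCR4, 0.25 nM for CXCR7). Room temperature, 1 h. Bound radioactivity counted 1 min/well. IC50 taken from inhibition of tracer binding.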

N=C(N)NCCC[C@@H]1NC(=O)[C@H](CCCNC(=N)N)NC(=O)[C@@H](Cc2ccc(O)cc2)NC(=O)CNC(=O)[C@H](Cc2ccc3ccccc3c2)NC1=O
IC50: 1200 nM
